Screening data from PubChem.
Hits are enriched below; roughly 2.5% of the tested compounds scored in any of these assays.
TrxR1 substrate: rat thioredoxin reductase 1 substrate activity. 390,000 compounds, 0.01% hits. O89049. Potency, µM (highest dose often 114 µM), for the others: top-dose activity change, negative = substrate turnover. AID 588456. purified TrxR1 substrate turnover, NADPH consumption readout; further: potency means the concentration at half of the fitted maximal effect; on the % scale 0 is the no-effect control and ±100 the full control effect; nearly all actives have a fitted effect of over 50% in size
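Rat TrxR1, dispensed at 90 nM, was prereduced with 400 uM NADPH (final) for 5 min at ~22 deg C, then incubated with compound 15 min before 400 uM selenite. A first-read NADPH fluorescence drop versus no-compound background flagged substrates.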
rTrxR1 inhibitor: blocks rat thioredoxin reductase 1; O89049; recombinant rTrxR1, NADPH fluorescence consumption, selenite substrate; Potency, µM (top dose mostly 114 µM), without a hit: top-dose activity change, negative = inhibition, actives largely listed as inhibitors; 390,000 compounds, 1% hits; further: potency means the concentration at half of the fitted maximal effect; on the % scale 0 is the no-effect control and ±100 the full control effect; nearly all actives have a fitted effect of over 65% in size
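Rat TrxR1 (90 nM in the dispensed reagent) was pre-reduced with 400 uM NADPH for 5 min at room temperature, then incubated with compound for 15 min. After 400 uM selenite was added, NADPH fluorescence (Ex 340/Em 450 nm) was followed for 8 min.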
miR-21 reporter: raises the signal of a miR-21 reporter | HeLa miR-21 FLuc reporter, luciferase, 48 h | Potency, µM (highest dose often 38.3 µM), for inactives: at the highest dose reporter change, positive = more light | 340,000 tested, under 10 active | AID 2288; active = well fitted rising curve with a large enough effect; inconclusive = small, poorly fitted or top-dose-only effect; inactive = no such curve, though single readings can be large or run the other way;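 also: % of control where 0% means no effect; miR-21 action dims this reporter so a rising signal means less miR-21 action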
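HeLa cells endogenously expressing miR-21, stably carrying CMV-driven firefly luciferase with a downstream miR-21 binding site, 2000 cells/well. Titrations up to approximately 40 uM, 48 hours; luciferase luminescence read.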
ClpP mod: qHTS Assay for Activators of ClpP; purified B. subtilis ClpP, FRET peptide cleavage, 20 min; Potency, µM (titrated, usually from 57.5 µM), inactives show top-dose activity change, negative = active; 340,000 compounds, 1.9% hits; AID 651965, 2013; active means well fitted falling curve with a large enough effect; inconclusive means small, poorly fitted or top-dose-only effect; inactive means no such curve, though single readings can be large or run the other way; further: potency means the concentration at half of the fitted maximal effect; the source files actives as falling curves though it sought activators and does not explain the sign; nearly all actives have a fitted effect of over 65% in size
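Purified B. subtilis ClpP, 10 microg/mL final in Tris/HCl pH8 with KCl, BSA, glycerol and Tween-20, cleaved an Abz/nitrotyrosine-quenched decapeptide. Fluorescence (ex 320, em 430) was read at 0 and 20 min at room temperature. Delta was normalized to 5.8 microM ADEP and DMSO/no-enzyme controls.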
Anesthetic bind: binds horse apoferritin like a general anesthetic; P02791; apoferritin/1-aminoanthracene competitive binding, fluorescence; Potency, µM (highest dose often 77.5 µM), for inactives: at the top dose activity change, negative = displacement, actives largely listed as inhibitors; 350,000 compounds, 0.074% hits; AID 485281; further: potency means the concentration at half of the fitted maximal effect; on the % scale 0 is the no-effect control and ±100 the full control effect; nearly all actives have a fitted effect of over 20% in size
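10 uM apoferritin + 50% sat. 1-AMA, PBS; cpd 10 min RT; Ex380/Em535 endpoint; normalized to free probe vs complex; 4-param Hill fit; propofol titration as pos. ctrl.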
Active calls of the source: *; ! = repeats disagree; [ ] = another dose, or the depositor's remark. Unless noted, the call rests on the fitted dose curve; in most records, active means well fitted curve in the direction sought with a large enough effect; inconclusive means small, poorly fitted or top-dose-only effect, or another doubt; inactive means no such curve, though single readings can be large; an effect the other way counts as inactive or inconclusive.

How did CC(N=Cc1cccc(O)c1O)c1ccccc1 (stereo not drawn) do in these assays?
TrxR1 substrate: -11.5%; rTrxR1 inhibitor: 39.8µM*; miR-21 reporter: 20.8%; ClpP mod: -1.5%; Anesthetic bind: -9.1%

Results for CC(N=Cc1cc([N+](=O)[O-])ccc1O)c1ccccc1 (stereo not drawn) ?
TrxR1 substrate: -6.0%; rTrxR1 inhibitor: 3.3%; miR-21 reporter: 5.8%; ClpP mod: -0.2%; Anesthetic bind: inconclusive

Results for CCOc1ccc(CCNC(=O)c2cc3sc(CC)cc3n2C)cc1OCC ?
TrxR1 substrate: 7.4%; rTrxR1 inhibitor: 22.8%; miR-21 reporter: 8.2%; ClpP mod: -7.5%; Anesthetic bind: 53.8%

Results for Cc1ccc(C)c(Nc2nc3c(S(=O)(=O)c4ccc(Br)cc4)nnn3c3ccsc23)c1 ?
TrxR1 substrate: 18.6%; rTrxR1 inhibitor: 69.0%; miR-21 reporter: inconclusive; ClpP mod: 28.2µM*; Anesthetic bind: 5.4%

What do the screens show for `Cc1ccc(Nc2nc3c(S(=O)(=O)c4ccccc4)nnn3c3ccsc23)c(C)c1`?
TrxR1 substrate: 12.8%; rTrxR1 inhibitor: 29.0%; miR-21 reporter: 2.0%; ClpP mod: -1.0%; Anesthetic bind: 7.5%

What do the screens show for `Cc1ccc(C)c(Nc2nc3c(S(=O)(=O)c4ccc(C(C)C)cc4)nnn3c3ccsc23)c1`?
TrxR1 substrate: 20.3%; rTrxR1 inhibitor: 6.5%; miR-21 reporter: inconclusive; ClpP mod: 35.5µM*; Anesthetic bind: -13.2%

What do the screens show for `COc1ccccc1Nc1nc2c(S(=O)(=O)c3ccc(C(C)C)cc3)nnn2c2ccsc12`?
TrxR1 substrate: 66.8%; rTrxR1 inhibitor: 42.7%; miR-21 reporter: 1.7%; ClpP mod: -12.5%; Anesthetic bind: inconclusive

What do the screens show for `Nc1c(C(=O)Nc2ccc(OC(F)(F)F)cc2)nnn1Cc1ccccc1`?
TrxR1 substrate: 11.1%[11.4 µM]; rTrxR1 inhibitor: 4.0%; miR-21 reporter: -4.5%; ClpP mod: -3.3%; Anesthetic bind: -4.9%

How did C=CCSc1nnc(-c2cc3c(-c4ccccc4)nn(C)c3s2)n1C do in these assays?
TrxR1 substrate: 17.5%; rTrxR1 inhibitor: -8.5%[57.1 µM]; miR-21 reporter: -0.2%; ClpP mod: 28.2µM*; Anesthetic bind: -12.8%

Results for Cn1cccc1-c1cc2n(n1)CCC(=O)N2CCCC(=O)NCc1cccc(Cl)c1 ?
TrxR1 substrate: 4.5%[57.1 µM]; rTrxR1 inhibitor: 15.3%[57.1 µM]; miR-21 reporter: -3.1%; ClpP mod: -1.8%; Anesthetic bind: -1.9%

What do the screens show for `c1ccc(C2Nc3ccccc3Oc3ccccc32)cc1` (stereo not drawn)?
TrxR1 substrate: -5.3%; rTrxR1 inhibitor: -12.2%; miR-21 reporter: -2.4%; ClpP mod: 0.7%; Anesthetic bind: -1.5%

Results for O=C1NC(c2ccccc2)N=C2Oc3ccccc3C=C12 (stereo not drawn) ?
TrxR1 substrate: 89.9%[57.1 µM]; rTrxR1 inhibitor: -38.6%[57.1 µM]; ClpP mod: 11.2µM*

Reprinted at random: 2 records from the list.
Results for Cc1ccc(C)c(Nc2nc3c(S(=O)(=O)c4ccc(Br)cc4)nnn3c3ccsc23)c1 ?
TrxR1 substrate: 18.6%; rTrxR1 inhibitor: 69.0%; miR-21 reporter: inconclusive; ClpP mod: 28.2µM*; Anesthetic bind: 5.4%

What do the screens show for `c1ccc(C2Nc3ccccc3Oc3ccccc32)cc1` (stereo not drawn)?
TrxR1 substrate: -5.3%; rTrxR1 inhibitor: -12.2%; miR-21 reporter: -2.4%; ClpP mod: 0.7%; Anesthetic bind: -1.5%

Other compounds:
Results for C#CCOCCOCCOCCNc1nc(N2CCN(C(=O)[C@H](CCCCN)n3cc(CC(C)O)nn3)CC2)nc(N2CCN(C(=O)[C@H](Cc3ccc(O)cc3)n3cc(CCO)nn3)CC2)n1 (stereo partly drawn) ?
TrxR1 substrate: 3.0%; rTrxR1 inhibitor: 27.8%; ClpP mod: -1.3%

Results for C#CCOCCOCCOCCNc1nc(N2CCN(C(=O)[C@H](CCC(=O)O)n3cc(C(N)CC(C)C)nn3)CC2)nc(N2CCN(C(=O)[C@H](Cc3cc4ccccc4[nH]3)n3cc(C(N)CC(C)C)nn3)CC2)n1 (stereo partly drawn) ?
TrxR1 substrate: 4.8%; rTrxR1 inhibitor: 28.2µM*; miR-21 reporter: 2.1%; ClpP mod: -1.1%; Anesthetic bind: -1.9%

What do the screens show for `C#CCOCCOCCOCCNc1nc(N2CCN(C(=O)[C@H](CCCCN)n3cc(CCCC)nn3)CC2)nc(N2CCN(C(=O)[C@H](Cc3ccc(O)cc3)n3cc(CCO)nn3)CC2)n1`?
TrxR1 substrate: 9.8%[57.1 µM]; rTrxR1 inhibitor: 14.1µM*; miR-21 reporter: -18.3%; ClpP mod: 0.5%; Anesthetic bind: -16.0%

What do the screens show for `C#CCOCCOCCOCCNc1nc(N2CCN(C(=O)Cn3cc(CCCN=C(N)N)nn3)CC2)nc(N2CCN(C(=O)[C@H]([C@@H](C)O)n3cc(CCCCN)nn3)CC2)n1`?
TrxR1 substrate: -0.7%; rTrxR1 inhibitor: 70.8µM*; ClpP mod: 3.2%

How did C#CCOCCOCCOCCNc1nc(N2CCN(C(=O)CCCCCCCCCCNC(=O)[C@H](CCCCN)n3cc(CCO)nn3)CC2)nc(N2CCN(C(=O)CCCCCCCCCCNC(=O)[C@@H]([C@H](C)O)n3cc(C)nn3)CC2)n1 do in these assays?
TrxR1 substrate: 6.0%; rTrxR1 inhibitor: 50.1µM*; ClpP mod: 2.9%

How did C#CCOCCOCCOCCNc1nc(N2CCN(C(=O)[C@H](Cc3cc4ccccc4[nH]3)n3cc(C(N)CC(C)C)nn3)CC2)nc(N2CCN(C(=O)[C@H](CCC(=O)O)n3cc(C(N)[C@H](C)CC)nn3)CC2)n1 (stereo partly drawn) do in these assays?
TrxR1 substrate: 3.6%; rTrxR1 inhibitor: inconclusive; miR-21 reporter: 2.2%; ClpP mod: -7.2%; Anesthetic bind: -8.0%

How did c1ccc(CSc2nnc(C3CCNCC3)o2)cc1 do in these assays?
TrxR1 substrate: 5.4%; rTrxR1 inhibitor: 11.0%; miR-21 reporter: -5.3%; ClpP mod: -0.3%; Anesthetic bind: -2.8%

How did CCCn1c2ccccc2c2cnn(CC(=O)Nc3ccccc3OC)c(=O)c21 do in these assays?
TrxR1 substrate: -3.6%[57.1 µM]; rTrxR1 inhibitor: 17.4%[57.1 µM]; miR-21 reporter: 7.3%; ClpP mod: inconclusive; Anesthetic bind: -6.5%

How did COc1cc2c[n+](C)c3c4ccccc4ccc3c2cc1OC do in these assays?
TrxR1 substrate: 110.6%; rTrxR1 inhibitor: -31.1%; ClpP mod: 8.91µM*

What do the screens show for `CCCCCCCC/C=C\CCCCCCCC(=O)NCCc1ccc(O)c(O)c1`?
TrxR1 substrate: inconclusive; rTrxR1 inhibitor: 26.7µM*!; ClpP mod: -1.0%

What do the screens show for `O=C(c1ccc(F)cc1)N1CCCC(C(=O)N2CCN(c3ccccc3)CC2)C1` (stereo not drawn)?
TrxR1 substrate: 0.0%[57.1 µM]; rTrxR1 inhibitor: -0.1%[57.1 µM]; miR-21 reporter: -0.5%; ClpP mod: 28.2µM*; Anesthetic bind: -3.3%

Results for O=C(Nc1ccc(F)cc1)c1ccc(C(=O)N2CCCC(O)C2)cc1 (stereo not drawn) ?
TrxR1 substrate: 13.7%[57.1 µM]; rTrxR1 inhibitor: 10µM*; ClpP mod: -1.7%

How did O=C(NCc1ccc2c(c1)OCO2)c1ccc2c(c1)N(Cc1cccc(Cl)c1)C(=O)c1ccccc1S2=O (stereo not drawn) do in these assays?
TrxR1 substrate: -1.3%[57.1 µM]; rTrxR1 inhibitor: 18.0%[57.1 µM]; miR-21 reporter: -1.2%; ClpP mod: -1.0%; Anesthetic bind: 0.7%
